Data as given in patent publication EP2768830B1, “APOPTOSIS-INDUCING AGENTS FOR THE TREATMENT OF CANCER AND IMMUNE AND AUTOIMMUNE DISEASES” (AbbVie Inc., priority 2011, dated 2013).

Experiment: in vivo
Details: rat, plasma, po, 5 mg/kg

| Compound | bioavailability [%] |
| --- | --- |
| CC(c1ccccc1)n1cc(-c2ccc(N3CCc4cccc(C(=O)Nc5nc6ccccc6s5)c4C3)nc2C(=O)O)cn1 (centres unmarked) [Example 5, 6-[8-(1,3-benzothiazol-2-ylcarbamoyl)-3,4-dihydroisoquinolin-2(1H)-yl]-3-[1-(1-phenylethyl)-1H-pyrazol-4-yl]pyridine-2-carboxylic acid] | 19 |
| Cc1nn(Cc2ccccc2)c(C)c1-c1ccc(N2CCc3cccc(C(=O)Nc4nc5ccccc5s4)c3C2)nc1C(=O)O [Example 12, 6-[8-(1,3-benzothiazol-2-ylcarbamoyl)-3,4-dihydroisoquinolin-2(1H)-yl]-3-(1-benzyl-3,5-dimethyl-1H-pyrazol-4-yl)pyridine-2-carboxylic acid] | 29 |
| Cc1nn(Cc2ccccc2)cc1-c1ccc(N2CCc3cccc(C(=O)Nc4nc5ccccc5s4)c3C2)nc1C(=O)O [Example 19, 6-[8-(1,3-benzothiazol-2-ylcarbamoyl)-3,4-dihydroisoquinolin-2(1H)-yl]-3-(1-benzyl-3-methyl-1H-pyrazol-4-yl)pyridine-2-carboxylic acid] | 22 |
| O=C(Nc1nc2ccccc2s1)c1cccc2c1CN(c1ccc(-c3cnn(Cc4cccc(N5CCCC5)n4)c3)c(C(=O)O)n1)CC2 [Example 22, 6-[8-(1,3-benzothiazol-2-ylcarbamoyl)-3,4-dihydroisoquinolin-2(1H)-yl]-3-(1-{[6-(pyrrolidin-1-yl)pyridin-2-yl]methyl}-1H-pyrazol-4-yl)pyridine-2-carboxylic acid] | 27 |
| O=C(Nc1nc2ccccc2s1)c1cccc2c1CN(c1ccc(-c3cnn(-c4ccccc4)c3)c(C(=O)O)n1)CC2 [Example 23, 6-[8-(1,3-benzothiazol-2-ylcarbamoyl)-3,4-dihydroisoquinolin-2(1H)-yl]-3-(1-phenyl-1H-pyrazol-4-yl)pyridine-2-carboxylic acid] | 20 |
| O=C(Nc1nc2ccccc2s1)c1cccc2c1CN(c1ccc(-c3cnn(Cc4ccccc4Cl)c3)c(C(=O)O)n1)CC2 [Example 25, 6-[8-(1,3-benzothiazol-2-ylcarbamoyl)-3,4-dihydroisoquinolin-2(1H)-yl]-3-[1-(2-chlorobenzyl)-1H-pyrazol-4-yl]pyridine-2-carboxylic acid] | 24 |
| O=C(Nc1nc2ccccc2s1)c1cccc2c1CN(c1ccc(-c3cnn(C4CCc5ccccc54)c3)c(C(=O)O)n1)CC2 (centres unmarked) [Example 37, 6-[8-(1,3-benzothiazol-2-ylcarbamoyl)-3,4-dihydroisoquinolin-2(1H)-yl]-3-[1-(2,3-dihydro-1H-inden-1-yl)-1H-pyrazol-4-yl]pyridine-2-carboxylic acid] | 29 |
| Cc1c(-c2ccc(N3CCc4cccc(C(=O)Nc5nc6ccccc6s5)c4C3)nc2C(=O)O)cnn1CC1CCCC1 [Example 63, 6-[8-(1,3-benzothiazol-2-ylcarbamoyl)-3,4-dihydroisoquinolin-2(1H)-yl]-3-[1-(cyclopentylmethyl)-5-methyl-1H-pyrazol-4-yl]pyridine-2-carboxylic acid] | 20 |
| O=C(Nc1nc2ccccc2s1)c1cccc2c1CN(c1ccc(-c3cnn(CC4CCCCC4)c3C3CC3)c(C(=O)O)n1)CC2 [Example 70, 6-[8-(1,3-benzothiazol-2-ylcarbamoyl)-3,4-dihydroisoquinolin-2(1H)-yl]-3-[1-(cyclohexylmethyl)-5-cyclopropyl-1H-pyrazol-4-yl]pyridine-2-carboxylic acid] | 21 |
| Cc1c(-c2ccc(N3CCc4cccc(C(=O)Nc5nc6ccccc6s5)c4C3)nc2C(=O)O)cnn1CC1CCC(F)(F)CC1 [Example 73, 6-[8-(1,3-benzothiazol-2-ylcarbamoyl)-3,4-dihydroisoquinolin-2(1H)-yl]-3-{1-[(4,4-difluorocyclohexyl)methyl]-5-methyl-1H-pyrazol-4-yl}pyridine-2-carboxylic acid] | 19 |
| O=C(Nc1nc2ccccc2s1)c1cccc2c1CN(c1ccc(-c3cnn(CC4(C(F)(F)F)CCCCC4)c3)c(C(=O)O)n1)CC2 [Example 74, 6-[8-(1,3-benzothiazol-2-ylcarbamoyl)-3,4-dihydroisoquinolin-2(1H)-yl]-3-(1-{[1-(trifluoromethyl)cyclohexyl]methyl}-1H-pyrazol-4-yl)pyridine-2-carboxylic acid] | 23 |
| Cc1c(-c2ccc(N3CCc4cccc(C(=O)Nc5nc6ccccc6s5)c4C3)nc2C(=O)O)cnn1CC1(C)CCCCC1 [Example 82, 6-[8-(1,3-benzothiazol-2-ylcarbamoyl)-3,4-dihydroisoquinolin-2(1H)-yl]-3-{5-methyl-1-[(1-methylcyclohexyl)methyl]-1H-pyrazol-4-yl}pyridine-2-carboxylic acid] | 45 |
| COCCC1(Cn2cc(-c3ccc(N4CCc5cccc(C(=O)Nc6nc7ccccc7s6)c5C4)nc3C(=O)O)cn2)CCCCC1 [Example 88, 6-[8-(1,3-benzothiazol-2-ylcarbamoyl)-3,4-dihydroisoquinolin-2(1H)-yl]-3-(1-{[1-(2-methoxyethyl)cyclohexyl]methyl}-1H-pyrazol-4-yl)pyridine-2-carboxylic acid] | 23 |
| COCCOc1ccccc1Cn1ncc(-c2ccc(N3CCc4cccc(C(=O)Nc5nc6ccccc6s5)c4C3)nc2C(=O)O)c1C [Example 89, 6-[8-(1,3-benzothiazol-2-ylcarbamoyl)-3,4-dihydroisoquinolin-2(1H)-yl]-3-{1-[2-(2-methoxyethoxy)benzyl]-5-methyl-1H-pyrazol-4-yl}pyridine-2-carboxylic acid] | 13 |
| COCCC1(Cn2ncc(-c3ccc(N4CCc5cccc(C(=O)Nc6nc7ccccc7s6)c5C4)nc3C(=O)O)c2C)CCCCC1 [Example 90, 6-[8-(1,3-benzothiazol-2-ylcarbamoyl)-3,4-dihydroisoquinolin-2(1H)-yl]-3-(1-{[1-(2-methoxyethyl)cyclohexyl]methyl}-5-methyl-1H-pyrazol-4-yl)pyridine-2-carboxylic acid] | 44 |
| Cc1c(-c2ccc(N3CCc4cccc(C(=O)Nc5nc6ccccc6s5)c4C3)nc2C(=O)O)cnn1C[C@@H]1C[C@@H]2C=C[C@H]1C2 [Example 91, 6-[8-(1,3-benzothiazol-2-ylcarbamoyl)-3,4-dihydroisoquinolin-2(1H)-yl]-3-{1-[(1R,2R,4R)-bicyclo[2.2.1]hept-5-en-2-ylmethyl]-5-methyl-1H-pyrazol-4-yl}pyridine-2-carboxylic acid] | 16 |
| COCCC(c1ccccc1)n1cc(-c2ccc(N3CCc4cccc(C(=O)Nc5nc6ccccc6s5)c4C3)nc2C(=O)O)cn1 (centres unmarked) [Example 93, 6-[8-(1,3-benzothiazol-2-ylcarbamoyl)-3,4-dihydroisoquinolin-2(1H)-yl]-3-[1-(3-methoxy-1-phenylpropyl)-1H-pyrazol-4-yl]pyridine-2-carboxylic acid] | 33 |
| COCCCC1(Cn2ncc(-c3ccc(N4CCc5cccc(C(=O)Nc6nc7ccccc7s6)c5C4)nc3C(=O)O)c2C)CCCCC1 [Example 97, 6-[8-(1,3-benzothiazol-2-ylcarbamoyl)-3,4-dihydroisoquinolin-2(1H)-yl]-3-(1-{[1-(3-methoxypropyl)cyclohexyl]methyl}-5-methyl-1H-pyrazol-4-yl)pyridine-2-carboxylic acid] | 33 |
| Cc1c(-c2ccc(N3CCc4cccc(C(=O)Nc5nc6ccccc6s5)c4C3)nc2C(=O)O)cnn1Cc1ccccc1OCC1CCOCC1 [Example 99, 6-[8-(1,3-benzothiazol-2-ylcarbamoyl)-3,4-dihydroisoquinolin-2(1H)-yl]-3-{5-methyl-1-[2-(tetrahydro-2H-pyran-4-ylmethoxy)benzyl]-1H-pyrazol-4-yl}pyridine-2-carboxylic acid] | 19 |
| COCCOC1(Cn2ncc(-c3ccc(N4CCc5cccc(C(=O)Nc6nc7ccccc7s6)c5C4)nc3C(=O)O)c2C)CCCCC1 [Example 101, 6-[8-(1,3-benzothiazol-2-ylcarbamoyl)-3,4-dihydroisoquinolin-2(1H)-yl]-3-(1-{[1-(2-methoxyethoxy)cyclohexyl]methyl}-5-methyl-1H-pyrazol-4-yl)pyridine-2-carboxylic acid] | 40 |
| O=C(Nc1nc2ccccc2s1)c1cccc2c1CN(c1ccc(-c3cccc(Oc4ccccc4)c3)c(C(=O)O)n1)CC2 [Example 103, 6-[8-(1,3-benzothiazol-2-ylcarbamoyl)-3,4-dihydroisoquinolin-2(1H)-yl]-3-(3-phenoxyphenyl)pyridine-2-carboxylic acid] | 39 |
| O=C(Nc1nc2ccccc2s1)c1cccc2c1CN(c1ccc(-c3cccc(Cc4ccccc4)c3)c(C(=O)O)n1)CC2 [Example 106, 6-[8-(1,3-benzothiazol-2-ylcarbamoyl)-3,4-dihydroisoquinolin-2(1H)-yl]-3-(3-benzylphenyl)pyridine-2-carboxylic acid] | 24 |
| Cc1c(Oc2ccccc2)cccc1-c1ccc(N2CCc3cccc(C(=O)Nc4nc5ccccc5s4)c3C2)nc1C(=O)O [Example 110, 6-[8-(1,3-benzothiazol-2-ylcarbamoyl)-3,4-dihydroisoquinolin-2(1H)-yl]-3-(2-methyl-3-phenoxyphenyl)pyridine-2-carboxylic acid] | 36 |
| Cc1c(OC2CCCCC2)cccc1-c1ccc(N2CCc3cccc(C(=O)Nc4nc5ccccc5s4)c3C2)nc1C(=O)O [Example 114, 6-[8-(1,3-benzothiazol-2-ylcarbamoyl)-3,4-dihydroisoquinolin-2(1H)-yl]-3-[3-(cyclohexyloxy)-2-methylphenyl]pyridine-2-carboxylic acid] | 38 |
| O=C(Nc1nc2ccccc2s1)c1cccc2c1CN(c1ccc(-c3cccc(OC4CCCCC4)c3F)c(C(=O)O)n1)CC2 [Example 119, 6-[8-(1,3-benzothiazol-2-ylcarbamoyl)-3,4-dihydroisoquinolin-2(1H)-yl]-3-[3-(cyclohexyloxy)-2-fluorophenyl]pyridine-2-carboxylic acid] | 54 |
| O=C(Nc1nc2ccccc2s1)c1cccc2c1CN(c1ccc(-c3cn(Cc4ccccc4)nn3)c(C(=O)O)n1)CC2 [Example 122, 6-[8-(1,3-benzothiazol-2-ylcarbamoyl)-3,4-dihydroisoquinolin-2(1H)-yl]-3-(1-benzyl-1H-1,2,3-triazol-4-yl)pyridine-2-carboxylic acid] | 40 |
